Experimental data taken from EP1903056A2, “HLA-A1, -A2 -A3, -A24, -B7, and -B44 tumor associated antigen peptides and compositions” (priority 2002, dated 2004).

Experiments:
[1] = molecular target: HLA-A*0101 (Homo sapiens, UniProt P04439, A114D/A174V/A182V/D101N/D185E/E176A/E190D/L180R/Q94H/R68K/S129P/T187R/V100A/V91M/W191G); assay: Class I peptide-binding assay, A*0101; details: for change of HLA-A*0101 binding affinity of analog: result in words; for IC50: binding affinity (IC50) to HLA-A*0101, running text
[2] = molecular target: B*4501 (Homo sapiens, UniProt P01889, A329T/A65T/A93T/A95T/C349S/D138N/D201E/D98Y/E176V/E187L/E204Q/E69K/H137Y/K202T/L119W/N87E/Q56L/Q94N/R155S/R180D/S121R/S35A/S48T/V127L/V306I/V36M/W191S/Y140L/Y33H/Y91S); assay: B44 supertype peptide binding, B*4501; details: CEA-derived B44 peptides; binding affinity, unit inferred; read-out: B* 4501
[3] = molecular target: B*4403 (Homo sapiens, UniProt P01889, A223V/A65T/A93T/A95T/D201E/D98Y/E176V/E187L/E204Q/E69K/G107R/H137Y/K202T/L105A/L119I/N104T/N87E/Q56L/Q94N/R106L/R155S/R180L/S101N/S121R/S35A/S48T/T118I/V36M/W191S/Y140D/Y91S); assay: B44 supertype peptide binding, B*4403; details: CEA-derived B44 peptides; binding affinity, unit inferred; read-out: B* 4403
[4] = tested on: B44 supertype (B*1801, B*4001, B*4002, B*4402, B*4403, B*4501); assay: B44 supertype cross-binding (degeneracy, alleles bound); design: species or system human; details: number of the six B44 supertype alleles bound
[5] = molecular target: B*4002 (B61) (Homo sapiens, UniProt P01889, A65T/A93T/A95T/D138N/D201E/D98Y/E176V/E204Q/E69K/K202T/N87E/Q56L/Q94N/R180L/S48T/Y33H/Y91S); assay: B44 supertype peptide binding, B*4002; details: CEA-derived B44 peptides; binding affinity, unit inferred; read-out: B* 4002
[6] = molecular target: B*4001(B60) (Homo sapiens, UniProt P01889, A65T/A93T/A95T/D138N/D98Y/E176V/E69K/N87E/Q56L/Q94N/R180L/S121R/S35A/S48T/T167S/V36M/W171L/Y33H/Y91S); assay: B44 supertype peptide binding, B*4001; details: CEA-derived B44 peptides; binding affinity, unit inferred; read-out: B* 4001
[7] = molecular target: B*1801 (Homo sapiens, UniProt P01889, A329T/A93T/A95T/C349S/D201E/D54G/D98Y/E176V/E187T/E204Q/E69T/K202T/Q94N/R155S/R180L/S121R/V306I/Y140S/Y195H/Y33H/Y91S); assay: B44 supertype peptide binding, B*1801; details: CEA-derived B44 peptides; binding affinity, unit inferred
[8] = molecular target: B*4402 (Homo sapiens, UniProt P01889, A223V/A65T/A93T/A95T/D201E/D98Y/E176V/E187L/E204Q/E69K/G107R/H137Y/K202T/L105A/L119I/N104T/N87E/Q56L/Q94N/R106L/R155S/R180D/S101N/S121R/S35A/S48T/T118I/V36M/W191S/Y140D/Y91S); assay: B44 supertype peptide binding, B*4402; details: CEA-derived B44 peptides; binding affinity, unit inferred; read-out: B* 4402

change of HLA-A*0101 binding affinity of analog [1] | IC50 [1] | IC50 [2] | IC50 [3] | Degeneracy [4] | IC50 [5] | IC50 [6] | IC50 [7] | IC50 [8] | Compound
significantly improved binding affinity |  |  |  |  |  |  |  |  | CSCC[C@H](N)C(=O)N[C@H](C(=O)N[C@@H](CC(=O)O)C(=O)N[C@@H](CC(C)C)C(=O)N[C@H](C(=O)N[C@@H](CC(=O)O)C(=O)N[C@@H](C)C(=O)N[C@@H](CCC(=O)O)C(=O)N[C@@H](CCC(=O)O)C(=O)N[C@@H](Cc1ccc(O)cc1)C(=O)O)C(C)C)[C@@H](C)O
significantly improved binding affinity |  |  |  |  |  |  |  |  | C[C@H](NC(=O)[C@@H](NC(=O)[C@H](CC(=O)O)NC(=O)[C@@H](NC(=O)CN)[C@@H](C)O)[C@@H](C)O)C(=O)N[C@@H](CCC(=O)O)C(=O)N[C@@H](CC(N)=O)C(=O)N1CCC[C@H]1C(=O)N[C@@H](CCC(=O)O)C(=O)N[C@@H](Cc1ccc(O)cc1)C(=O)O
significantly improved binding affinity |  |  |  |  |  |  |  |  | CC(C)C[C@H](NC(=O)[C@@H]1CCCN1C(=O)[C@H](CC(=O)O)NC(=O)[C@H](C)NC(=O)[C@@H]1CCCN1)C(=O)N[C@@H](CC(=O)O)C(=O)N[C@@H](CO)C(=O)N[C@H](C(=O)N[C@@H](Cc1ccccc1)C(=O)N[C@@H](Cc1ccc(O)cc1)C(=O)O)[C@@H](C)O
 | ≤ 100 nM |  |  |  |  |  |  |  | CC[C@H](C)[C@H](N)C(=O)N[C@H](C(=O)N[C@@H](CC(=O)O)C(=O)N[C@@H](CC(N)=O)C(=O)N[C@@H](CC(N)=O)C(=O)N[C@@H](CO)C(=O)NCC(=O)N[C@@H](CO)C(=O)N[C@@H](Cc1ccc(O)cc1)C(=O)O)[C@@H](C)O [CEA.289D3]
 | ≤ 100 nM |  |  |  |  |  |  |  | CC[C@H](C)[C@H](NC(=O)[C@@H](N)[C@@H](C)O)C(=O)N[C@@H](CC(=O)O)C(=O)N1CCC[C@H]1C(=O)N[C@@H](CO)C(=O)N[C@@H](Cc1ccc(O)cc1)C(=O)N[C@H](C(=O)N[C@@H](Cc1ccc(O)cc1)C(=O)N[C@@H](Cc1ccc(O)cc1)C(=O)O)[C@@H](C)O [CEA.419D3]
 | ≤ 100 nM |  |  |  |  |  |  |  | CC[C@H](C)[C@H](N)C(=O)N[C@H](C(=O)N[C@@H](CC(=O)O)C(=O)N[C@@H](CCCCN)C(=O)N[C@@H](CC(N)=O)C(=O)N[C@@H](CO)C(=O)NCC(=O)N[C@@H](CC(C)C)C(=O)N[C@@H](Cc1ccc(O)cc1)C(=O)O)[C@@H](C)O [CEA.467D3]
 | ≤ 100 nM |  |  |  |  |  |  |  | NC(=O)CC[C@H](NC(=O)[C@@H]1CCCN1C(=O)[C@H](CO)NC(=O)[C@@H]1CCCN1C(=O)[C@H](CC(N)=O)NC(=O)[C@H](CO)NC(=O)[C@H](CC(=O)O)NC(=O)[C@H](CO)NC(=O)[C@@H](N)Cc1c[nH]cn1)C(=O)N[C@@H](Cc1ccc(O)cc1)C(=O)O [CEA.616D3]
 | ≤ 100 nM |  |  |  |  |  |  |  | C[C@H](NC(=O)[C@H](CO)NC(=O)[C@@H](N)Cc1c[nH]cn1)C(=O)N[C@@H](CO)C(=O)N[C@@H](CC(N)=O)C(=O)N1CCC[C@H]1C(=O)N[C@@H](CO)C(=O)N1CCC[C@H]1C(=O)N[C@@H](CCC(N)=O)C(=O)N[C@@H](Cc1ccc(O)cc1)C(=O)O [CEA.616]
significantly improved binding affinity |  |  |  |  |  |  |  |  | CSCC[C@H](NC(=O)[C@@H](N)C(C)C)C(=O)N[C@@H](CC(=O)O)C(=O)NCC(=O)N[C@H](C(=O)NCC(=O)N[C@@H](CO)C(=O)N1CCC[C@H]1C(=O)N[C@@H](Cc1ccc(O)cc1)C(=O)O)C(C)C [HER2/neu.773D3]
 |  | > 10 µM | 803 nM | 0 | 2080 nM | 11600 nM | 1430 nM | 16.9 µM | CC(C)[C@H](N)C(=O)N[C@@H](CCC(=O)O)C(=O)N[C@@H](CC(=O)O)C(=O)N[C@@H](CCCCN)C(=O)N[C@@H](CC(=O)O)C(=O)N[C@@H](C)C(=O)N[C@H](C(=O)N[C@@H](C)C(=O)N[C@@H](Cc1ccccc1)C(=O)N[C@H](C(=O)O)[C@@H](C)O)C(C)C [compound 418]
 |  | > 10 µM | 536 nM | 0 | > 10000 nM | > 10000 nM | 1350 nM | 0.787 µM | C[C@H](NC(=O)[C@H](CC(=O)O)NC(=O)[C@H](CCC(N)=O)NC(=O)[C@@H](NC(=O)[C@H](CCC(=O)O)NC(=O)[C@@H]1CCCN1C(=O)[C@H](CCC(=O)O)NC(=O)[C@@H](N)CS)[C@@H](C)O)C(=O)N[C@H](C(=O)N[C@@H](Cc1ccc(O)cc1)C(=O)O)[C@@H](C)O [compound 419]
 |  | > 10 µM | 19500 nM | 0 | > 10000 nM | > 10000 nM | 10800 nM | 6.34 µM | C[C@H](NC(=O)[C@H](CC(=O)O)NC(=O)[C@H](CCC(N)=O)NC(=O)[C@@H](NC(=O)[C@H](CCC(=O)O)NC(=O)[C@@H]1CCCN1)[C@@H](C)O)C(=O)N[C@H](C(=O)N[C@@H](Cc1ccc(O)cc1)C(=O)O)[C@@H](C)O [compound 420]
 |  | > 10 µM | 915 nM | 0 | > 10000 nM | > 10000 nM | 9350 nM |  | CC(C)C[C@H](NC(=O)[C@H](Cc1ccc(O)cc1)NC(=O)[C@@H](NC(=O)[C@H](C)NC(=O)[C@H](CC(=O)O)NC(=O)[C@H](CCC(N)=O)NC(=O)[C@@H](NC(=O)[C@H](CCC(=O)O)NC(=O)[C@@H]1CCCN1)[C@@H](C)O)[C@@H](C)O)C(=O)N[C@@H](Cc1c[nH]c2ccccc12)C(=O)O [compound 422]
 |  | > 10 µM | 2680 nM | 0 | 2360 nM | 895 nM | 7270 nM | 6.67 µM | CC(C)C[C@H](NC(=O)[C@H](C)NC(=O)[C@@H](NC(=O)[C@H](C)NC(=O)[C@H](CC(=O)O)NC(=O)[C@H](CCC(=O)O)NC(=O)[C@H](CC(=O)O)NC(=O)[C@H](CCC(=O)O)NC(=O)[C@@H](N)C(C)C)C(C)C)C(=O)N[C@H](C(=O)O)[C@@H](C)O [compound 426]
 |  | > 10 µM | 1620 nM | 0 | > 10000 nM | 7270 nM | 1020 nM | > 10 µM | CC[C@H](C)[C@H](NC(=O)[C@H](CCC(=O)O)NC(=O)[C@@H]1CCCN1)C(=O)N[C@@H](CCC(N)=O)C(=O)N[C@@H](CC(N)=O)C(=O)N[C@H](C(=O)N[C@H](C(=O)N[C@@H](Cc1ccc(O)cc1)C(=O)O)[C@@H](C)O)[C@@H](C)O [compound 427]

Compound | change of HLA-A*0101 binding affinity of analog [1] | IC50 [1] | IC50 [2] | IC50 [3] | Degeneracy [4] | IC50 [5] | IC50 [6] | IC50 [7] | IC50 [8]
CC(C)C[C@H](NC(=O)[C@H](CC(C)C)NC(=O)[C@H](CC(C)C)NC(=O)[C@@H](NC(=O)[C@H](CCC(=O)O)NC(=O)[C@H](CCCCN)NC(=O)CNC(=O)[C@H](CCC(=O)O)NC(=O)[C@H](C)N)C(C)C)C(=O)O [compound 368] |  |  | 0.161 µM | 1.5 nM | 6 | 60 nM | 34 nM | 359 nM | 0.179 µM
CC[C@H](C)[C@H](NC(=O)[C@H](CC(N)=O)NC(=O)[C@@H]1CCCN1C(=O)[C@@H](NC(=O)[C@H](Cc1ccccc1)NC(=O)[C@H](CC(C)C)NC(=O)[C@H](CCC(=O)O)NC(=O)[C@@H](N)CCC(N)=O)[C@@H](C)CC)C(=O)N[C@H](C(=O)N[C@H](C(=O)O)C(C)C)[C@@H](C)O [compound 369] |  |  | 0.014 µM | 2.6 nM | 6 | 27 nM | 121 nM | 81 nM | 0.048 µM
CC(C)C[C@H](NC(=O)[C@H](Cc1ccc(O)cc1)NC(=O)[C@@H](NC(=O)[C@H](C)NC(=O)[C@H](CC(=O)O)NC(=O)[C@H](CCC(N)=O)NC(=O)[C@@H](NC(=O)[C@H](CCC(=O)O)NC(=O)[C@@H]1CCCN1)[C@@H](C)O)[C@@H](C)O)C(=O)O [compound 421] |  |  | 13.4 µM | 2490 nM | 0 | > 10000 nM | 1370 nM | 13200 nM | > 10 µM
